System: mammalian ovarian cancer cell lines
Test: MTT cytotoxicity study, statements over all ovarian cancer cell lines tested
Assay type: cell-based
Protocol: Each of the cell lines listed above was plated at a density of 3,500 cells per well in 96 well plates and incubated at 37° C. for 24 hours. Each of the cell lines was treated with 50 μl of either ebselen, allopurinol, or ebselen plus allopurinol at concentrations ranging from 0 to 100 μM and incubated for one hour. After the one hour incubation, 50 μl of cisplatin and paclitaxel were added to the cell lines at the various concentrations shown in TABLE 2 to achieve an IC50 in the absence of other drugs. The cells were then incubated at 37° C. in 5% CO2 in the presence of the cisplatin and paclitaxel for an additional 67-72 hours. Control wells were included as follows: no drug, ebselen, allopurinol, ebselen and allopurinol, and cisplatin/paclitaxel.
After the 67-72 hour incubation period, 10 μl of MTT (3-(4,5-dimethlythiazol-2-yl)-2,5-diphenyl […] bromide) working solution was added to each well (based on the instructions in the Chemicon MTT Cell Growth Kit Cat #CT01) and the cells were incubated for 4 hours. 100 μl of isopropanol/HCl solution was then added to each well and absorbance at 570 nm was measured. The results of the MTT assay for the different ovarian cancer cell lines tested are shown in FIGS. 9A-16C and are summarized below in TABLE 3.

Oc1ncnc2[nH]ncc12 [allopurinol]
effect of allopurinol on the chemotherapeutic effect of ebselen: did not reduce the chemotherapeutic effect of ebselen
